Measurements taken from ChEMBL document CHEMBL1129789, “Dopamine D3 and D4 receptor antagonists: synthesis and structure--activity relationships of (S)-(+)-N-(1-Benzyl-3-pyrrolidinyl)-5-chloro-4- [(cyclopropylcarbonyl) amino]-2-methoxybenzamide (YM-43611) and related compounds” (J Med Chem, 1996).

The chains behind the UniProt entries cited, without tags or fusion partners.
UniProt P19020, whole entry: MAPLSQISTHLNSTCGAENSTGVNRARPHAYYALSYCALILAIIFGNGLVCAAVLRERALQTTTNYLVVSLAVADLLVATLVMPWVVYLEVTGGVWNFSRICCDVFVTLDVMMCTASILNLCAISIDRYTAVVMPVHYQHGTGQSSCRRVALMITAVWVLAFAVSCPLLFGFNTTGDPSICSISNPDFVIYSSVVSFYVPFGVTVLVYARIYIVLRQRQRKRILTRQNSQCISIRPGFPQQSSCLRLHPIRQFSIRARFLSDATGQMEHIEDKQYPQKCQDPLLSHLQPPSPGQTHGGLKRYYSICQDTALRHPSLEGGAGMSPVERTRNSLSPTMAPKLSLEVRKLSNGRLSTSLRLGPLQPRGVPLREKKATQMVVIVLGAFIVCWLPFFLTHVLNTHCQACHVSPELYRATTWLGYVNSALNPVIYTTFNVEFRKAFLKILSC

Target: D(3) dopamine receptor (Rattus norvegicus, UniProt P19020)
Assay: biochemical

Ki: 0.16 nM
Compound: CNc1cc(OC)c(C(=O)N[C@H]2CCN(Cc3ccccc3)[C@H]2C)cc1Cl [NEMONAPRIDE]
